# PubChem BioAssay AID504707 (The Scripps Research Institute Molecular Screening Center, 2011)
# Amino acid sequences for entries named in this document (tags omitted).
# UniProt P00514, whole entry, looked up: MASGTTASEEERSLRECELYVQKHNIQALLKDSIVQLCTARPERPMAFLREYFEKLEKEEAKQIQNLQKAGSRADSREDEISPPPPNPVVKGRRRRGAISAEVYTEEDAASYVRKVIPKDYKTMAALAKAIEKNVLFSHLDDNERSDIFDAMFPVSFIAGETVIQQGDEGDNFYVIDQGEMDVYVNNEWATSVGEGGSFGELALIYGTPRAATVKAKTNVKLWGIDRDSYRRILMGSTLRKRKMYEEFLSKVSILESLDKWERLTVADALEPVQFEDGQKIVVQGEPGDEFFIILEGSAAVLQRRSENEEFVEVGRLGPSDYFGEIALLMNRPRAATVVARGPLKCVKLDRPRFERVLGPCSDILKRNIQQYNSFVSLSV
# The list shows a part of the results, in another mix than the full data. Active and inactive are the calls of the source.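 The calls were made as follows: active = percent activation above the mean of all tested compounds plus 3 SD (cut at about 19% in these data); inactive = the rest.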
# Biological target: cAMP-dependent protein kinase type I-alpha regulatory subunit (Bos taurus) + cAMP-dependent protein kinase catalytic subunit beta (Mus musculus) (UniProt P00514+P68181)
# Assay: compounds dissociating PKAc from R1A subunit – biochemical, fluorescence polarization, Cy5-IP20, bovine R1A, mouse PKAc, primary screen (AID 504707);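 also: higher means more PKAc released from R1A so a rise in polarization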
# Details: PKA-R1A dissociation, at 11.4 µM, hits give high values, scaled: DMSO 0%, 113 µM cGMP 100%
row,Compound,activation
1,CCCC1OP(=O)(Nc2ccccc2)OCC1CC (stereo not given),inactive: 1.4%
2,O=C(/C=C/c1ccccc1)OC1CN2CCC1CC2 (stereo not given),inactive: -4.94%
3,NC(=O)Nc1ccc([As](=O)(O)O)cc1,inactive: -9.54%
4,CCOP1(=S)c2c(C)nn(CCC#N)c2N=C(c2ccc(F)cc2)N1C (stereo not given),inactive: 3.52%
5,CN(C(=O)Cc1ccccc1)[C@@H]1CC[C@]2(CCCO2)C[C@H]1N1CCCC1,inactive: -7.75%
6,N#CCCN(C(=O)COC(=O)C(O)(c1ccccc1)c1ccccc1)c1ccc(F)cc1,inactive: 7.45%
7,CN(C(=O)Cc1ccc(Cl)c(Cl)c1)[C@H]1CC[C@@]2(CCCO2)C[C@@H]1N1CCCC1,inactive: -3.24%
8,O=[N+]([O-])c1ccc2c(c1)nnn2O,inactive: -12%
9,CN(C)C(=O)c1cc([N+](=O)[O-])cc2c1-c1c(cc([N+](=O)[O-])cc1[N+](=O)[O-])C2=O,inactive: 5.41%
10,O=P(Nc1nccs1)(Oc1ccccc1)Oc1ccccc1,inactive: -6.14%
11,O=P(Nc1nccs1)(c1ccccc1)c1nc2ccccc2s1 (stereo not given),inactive: -5.5%
12,CCOP1(=S)c2c(C)nn(CCC#N)c2N=C(c2ccccc2F)N1C (stereo not given),inactive: -5.7%
13,CS(=O)(=O)c1cc([N+](=O)[O-])c2no[n+]([O-])c2c1,inactive: -4.52%
14,O=C(O)COc1ccc([As](=O)(O)O)cc1[N+](=O)[O-],inactive: 5.04%
15,Nc1ccccc1[As](=O)(O)c1ccccc1,inactive: -2.89%
16,Cc1ccc(NCCc2c([N+](=O)[O-])cc([N+](=O)[O-])cc2[N+](=O)[O-])cc1,inactive: 5.74%
17,Nc1cccc2c([As](=O)(O)O)cccc12,inactive: -8.39%
18,CCCOP(=S)(Nc1nc(N)cc(=O)[nH]1)OCCC,inactive: 2.78%
19,CCOP(=O)(Nc1cccc2ccccc12)OCC,inactive: -17.5%
20,COc1cc(C2NCCC3(OCCO3)C2(C)C)cc(OC)c1OC (stereo not given),inactive: 1.32%
21,O=C(OC1CN2CCC1CC2)c1ccc(Cl)cc1 (stereo not given),inactive: -0.55%
22,CS(=O)(=O)c1ccc(Cl)c(NC(=O)COC(=O)C(O)(c2ccccc2)c2ccccc2)c1,inactive: 0.76%

row,Compound,activation
1,O=[As](O)(O)c1cccnc1,inactive: 7.77%
2,COc1cc(C(=O)NCC2(N3CCOCC3)CCCCC2)cc(Cl)c1OC(C)C,inactive: -7.42%
3,Cc1cccc(OCC(=O)OC2CN3CCC2CC3)c1 (stereo not given),inactive: -7.77%
4,O=[As](O)(c1cccc(O)c1)c1cccc(O)c1,inactive: -6.36%
5,O=[N+]([O-])c1cc(Oc2ccc([N+](=O)[O-])cc2C(F)(F)F)cc([N+](=O)[O-])c1,inactive: -0.12%
6,COc1ccc(N/C(=N/P(=O)(N2CCOCC2)N2CCOCC2)N2CCOCC2)cc1,inactive: -4.42%
7,Cc1c2c(nc3ccccc13)SC(C(Cl)Cl)C2 (stereo not given),inactive: 5.33%
8,Cc1cc(=O)[nH]c(N[N+](=O)[O-])n1,inactive: -10.7%
9,O=C(OC1CN2CCC1CC2)C12CC3CC(CC(C3)C1)C2 (stereo not given),inactive: -4.41%
10,O=P1(N(CCCl)CCCl)Nc2ccccc2N1,inactive: 0.5%
11,O=P1(N(CCCl)CCCl)OCCCN1CCCl (stereo not given),inactive: 5.45%
12,COc1cc(I)ccc1[As](=O)(O)O,inactive: 1.62%
13,COc1ccc2nc(NP(=O)(c3ccccc3)c3ccccc3)sc2c1,inactive: -13.1%
14,ClCCSc1nnc(-c2cccnc2)o1,inactive: -0.94%
15,COC(=O)C1(C)COP(=O)(N2CCCCCC2)OC1 (stereo not given),inactive: -4.21%
16,CC(C)c1ccc(OP(=O)(Nc2ccccn2)Oc2ccccc2F)cc1 (stereo not given),active: 19.3%
17,O=[N+]([O-])c1cc([N+](=O)[O-])c(-c2ccn[nH]2)s1,inactive: 7.71%
18,CCN(CC)C(=S)SC(NC=O)C(Cl)(Cl)Cl (stereo not given),inactive: 0.07%
19,O=C(OC1CN2CCC1CC2)c1cccc2[nH]cnc12 (stereo not given),inactive: -8.47%
20,O=[N+]([O-])c1ccc(-c2cc([N+](=O)[O-])c(O)c([N+](=O)[O-])c2)cc1,inactive: 2.52%
21,COc1cc(C(=O)NCC2(N3CCOCC3)CCCCC2)ccc1OCC(C)C,inactive: -7.61%
22,C[As](=O)(O)c1cccc(C(=O)O)c1,inactive: -10.5%

row,Compound,activation
1,O=[As](O)(c1ccc(O)cc1)c1ccccc1O,inactive: -1.94%
2,Cc1ccc(OP(=O)(Nc2ccc([N+](=O)[O-])cn2)Oc2ccc(C)cc2)cc1,inactive: 5.96%
3,Cc1ccc2nc3c(c(C)c2c1)CC(C(Cl)Cl)S3 (stereo not given),inactive: -13.7%
4,CCOC(=O)Nc1cccc([As](=O)(O)O)c1,inactive: -0.99%
5,Cc1cc(SC(NC=O)C(Cl)(Cl)Cl)ncn1 (stereo not given),inactive: 0.43%
6,O=P(Nc1ccccn1)(c1cccc2ccccc12)c1cccc2ccccc12,inactive: 0.87%
7,O=[N+]([O-])c1ccc(Nc2ccc(Oc3ccc([N+](=O)[O-])cc3[N+](=O)[O-])cc2)c([N+](=O)[O-])c1,inactive: 4.42%
8,O=C(O)C(O)c1ccc(N(CCCl)CCCl)cc1 (stereo not given),inactive: 6.54%
9,CCOC(=O)Nc1ccc([As](=O)(O)O)c(O)c1,inactive: -0.84%
10,CC1CCNP(=O)(N(CCCl)CCCl)O1 (stereo not given),inactive: -2.7%
11,COP(=O)(OC)N1CC1c1ccccc1 (stereo not given),inactive: 2.55%
12,Cc1cc(SC(NC(=O)c2ccccc2)C(Cl)(Cl)Cl)nc(C(C)C)n1 (stereo not given),inactive: 13.5%
13,CCCCOc1ccc(C(=O)NCC2(N3CCCCC3)CCCCC2)cc1OC,inactive: 0.85%
14,CSc1ccc(Nc2c([N+](=O)[O-])cc([N+](=O)[O-])cc2[N+](=O)[O-])cc1,inactive: -3.75%
15,O=C(OC1CN2CCC1CC2)c1cccc([N+](=O)[O-])c1 (stereo not given),inactive: -6.57%
16,CCOC(=O)c1ccc(NC(=O)C(C)(CCl)SC)cc1 (stereo not given),inactive: -1.91%
17,CCC(C)N(CC(C)C)C(=S)SC(NC(C)=O)C(Cl)(Cl)Cl (stereo not given),inactive: 3.64%
18,COP1(=S)c2c(C)nn(CCC#N)c2N=C(c2ccc(F)cc2)N1C (stereo not given),inactive: 5.13%
19,O=C(O)C(=O)c1ccc(N(CCCl)CCCl)cc1,inactive: -1.28%
20,O=C(Nc1ccncc1[N+](=O)[O-])c1ccc([N+](=O)[O-])cc1[N+](=O)[O-],inactive: -1.74%
21,O=C(COc1ccccc1)OC1CN2CCC1CC2 (stereo not given),inactive: 4.73%
